{"source": "patent US20080069869A1", "about": "“Formulations and methods for modulating satiety” (priority 2004, published 2008)", "origin": "cited, not measured here", "key": {"CCKB receptors": {"target": "T1, CCKB receptors (Homo sapiens, UniProt P32239)", "T1 sequence (P32239 1-447)": "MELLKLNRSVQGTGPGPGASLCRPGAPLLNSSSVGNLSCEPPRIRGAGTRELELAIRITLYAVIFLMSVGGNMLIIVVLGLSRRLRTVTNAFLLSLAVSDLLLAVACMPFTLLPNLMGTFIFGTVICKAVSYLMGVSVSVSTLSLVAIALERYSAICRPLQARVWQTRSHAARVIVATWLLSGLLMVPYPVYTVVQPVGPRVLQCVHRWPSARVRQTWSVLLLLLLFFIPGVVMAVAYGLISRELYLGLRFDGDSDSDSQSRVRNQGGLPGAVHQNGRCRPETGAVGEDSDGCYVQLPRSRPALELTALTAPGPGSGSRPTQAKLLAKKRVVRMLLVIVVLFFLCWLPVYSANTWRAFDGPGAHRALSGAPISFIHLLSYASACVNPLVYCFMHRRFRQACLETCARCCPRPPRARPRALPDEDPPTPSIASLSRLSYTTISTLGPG", "details": "de Montigny 1989; Bradwejn et al. 1992b; cited from earlier work"}, "CCK receptor": {"target": "T2, CCK receptor (Homo sapiens, UniProt P32239)", "T2 sequence (P32239 1-447)": "T1 sequence (P32239 1-447)", "details": "homogenates from the cerebral cortex; cited from earlier work"}}, "data": [{"substance": "CCK-4: the tetrapeptide, CCK-4 (CCK30-33)", "values": [{"measurement": "affinity for CCKB receptors", "setting": "CCKB receptors", "value": "high affinity and selectivity"}, {"measurement": "concentrations displacing CCK receptor binding relative to sulfated CCK-8", "setting": "CCK receptor", "value": "equimolar, 10-fold or 100-fold greater"}]}]}
